# Ab-95 light chain CDR variants: yeast mating affinities

Target: peptide PDVDLGDISGINAS, taken from heptad repeat 2 (HR2) of SARS-CoV-2 spike.

Parent: Ab-95, a human scFv built as VH, a (GGGGS)3 linker, VL. Only the CDRs of the light chain vary.
VH: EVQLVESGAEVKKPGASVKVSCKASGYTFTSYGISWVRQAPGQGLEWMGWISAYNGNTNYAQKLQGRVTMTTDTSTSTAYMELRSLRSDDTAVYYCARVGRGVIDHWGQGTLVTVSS
VL: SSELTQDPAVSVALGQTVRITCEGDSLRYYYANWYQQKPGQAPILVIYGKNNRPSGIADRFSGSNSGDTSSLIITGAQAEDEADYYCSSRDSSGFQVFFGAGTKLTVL

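The starting antibody came from a phage panning campaign against this peptide. In library AAYL52, one, two or three CDR residues were substituted; doubles and triples were drawn at random. The assay is AlphaSeq: two haploid yeast populations carry antibody and antigen on their surface. Mating (16 h, 30 °C) was followed by selection of diploids and sequencing of their barcodes. Read counts were normalised to the haploid input and turned into Kd by a linear fit to BCL2-family pairs of known affinity, for each replicate. Mating was done three times.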

Positions count from residue 1 of the parent VL; S26E puts E in place of S. This list gathers variants with a substitution at Y29 (VL, numbered from residue 1). The Kd shown is the geometric mean over detected replicates; a lower Kd is a better binder. "no signal" means that the variant was in the library but no mating with the target was seen in any replicate; the authors take this as a sign of poor binding, and no number exists.

changes	apparent Kd	replicates with signal
S26E+Y29M+S55I	4.2 µM	3/3
Y29A+Q96D	2.4 µM	3/3
Y29E+K50D+Q96S	1.4 µM	3/3
Y29H+N52D+S55P	200 nM	3/3
Y29S+N33C+S89A	1.6 µM	3/3
Y29E+S93F	720 nM	3/3
Y29V+S92A	930 nM	3/3
S26R+Y29R+N52H	21 µM	2/3
E23Y+Y29F+S93L	1.1 µM	3/3
Y29M+A32I+F95C	no signal	0/3
Y29S+Y30L+R53D	510 µM	1/3
Y29M+S92W	730 nM	3/3
D25I+Y29V+F95E	2.3 µM	1/3
R28D+Y29Q+A32S	440 nM	3/3
Y29N+N52A+V97G	6.3 µM	3/3
Y29I+Y31R+S88G	8.1 µM	1/3
Y29D+S55W	41 nM	3/3
Y29N+Y30M+S92M	16 nM	3/3
Y29P+K50D+R90I	no signal	0/3
Y29L+G49M+S88P	14 µM	1/3
Y29Q+N33E+R90L	3.3 µM	1/3
G24S+Y29V+S55L	290 µM	2/3
Y29W+G49V+N52T	2.8 µM	1/3
Y29R+A32S+K50W	19 µM	2/3
Y29D+S55V+Q96I	1.7 µM	3/3
Y29F+N51E+S92P	1.2 µM	3/3
R28N+Y29G+S55E	3.2 nM	3/3
L27S+Y29P+S93V	590 nM	3/3
D25M+Y29I+R53S	2.5 µM	2/3
Y29A+Y31H+F95I	4.0 µM	3/3
Y29L+Y30Q+D91N	7.0 nM	3/3
S26M+Y29T+S88K	38 µM	1/3
G24Q+R28I+Y29K	21 µM	1/3
Y29A+R53A+S93E	4.6 µM	1/3
Y29N+N33P+F95K	47 µM	2/3
Y29D+F95D+F98A	190 nM	3/3
Y29M+S55R+F98C	23 µM	2/3
Y29F+Y30Q+G49A	49 nM	3/3
Y29L+N51K+P54Y	1.6 µM	2/3
S26D+Y29R+N52I	260 nM	3/3
L27V+Y29L+N51M	38 µM	2/3
Y29W+Y30E+S92N	47 nM	3/3
D25L+Y29V+A32I	50 µM	2/3
Y29P+Y31V+S93Q	640 nM	2/3
D25K+Y29Q+R90D	13 µM	2/3
E23D+Y29R+R53I	2.9 µM	1/3
G24A+L27Y+Y29L	21 µM	2/3
R28H+Y29P+S88D	2.2 µM	3/3

For reference, the parent read 200 nM as the reference entry and 180 nM as a member of this library. Three control strains display no target. For library AAYL52, 28% of the pairings with them gave a signal, with a median of 8.2 µM and one signal in twenty below 800 nM, so weak values seen in few replicates may be background.

From the AlphaSeq antibody data of Engelhart et al. 2022 (doi:10.1038/s41597-022-01779-4), copy in the FLAb collection.